System: patients with mCRPC with HRR gene alterations
Test: TALAPRO-2 (NCT03395197) Phase 3, Part 2, DDR/HRR-deficient cohort (Cohort 2): efficacy
Format: in vivo, human
Conditions: for Median rPFS by BICR: BRCA1/2 mutations (BRCAm) subgroup
Experimental: In one embodiment, the increase in survival is measured by any of the following: progression free survival (PFS), radiographic PFS (rPFS), and overall survival (OS). PFS, rPFS and OS are clinically meaningful endpoints for measuring an increase in survival for patients treated with the combination of the present invention. […] OS is the length of time from either the date of diagnosis or the start of treatment for a disease, such as cancer, that patients diagnosed with the disease are still alive. In a clinical trial, measuring the PFS and OS are ways to see how well a new treatment works. For purposes of the clinical trial described here, rPFS refers to the time from the date of randomization to first objective evidence of radiographic progression assessed in soft tissue per Response Evaluation Criteria in Solid Tumors version 1.1 (RECIST 1.1) or in bone (upon subsequent confirmation) per Prostate Cancer Working Group (PCWG3) guidelines by Blinded Independent Central Review (BICR), or death, whichever occurs first. […]
Part 2 was randomized, double-blind, and placebo-controlled and evaluated the efficacy and safety of talazoparib in combination with enzalutamide compared with placebo in combination with enzalutamide. […] Stratification factors were specified by the investigator, and recorded in the interactive web response system (IWRS) before randomization and used for the stratified analysis of the primary efficacy endpoint. […]
Genomic screening to identify alterations in DDR genes was optional for patients in Part 1, but it was required for randomization in Part 2. Mutational status was determined by testing for the presence of mutations in defined DDR genes likely to sensitize to PARP inhibition using next generation sequencing (NGS) based gene panel test. […] For exploratory analysis, available blood-based samples (not collected in China) were retrospectively tested using FoundationOneLiquid® CDx to determine the status of patients with a prospectively-assessed status of unknown.

For CNC(=O)c1ccc(N2C(=S)N(c3ccc(C#N)c(C(F)(F)F)c3)C(=O)C2(C)C)cc1F [Placebo + Enzalutamide], the “Median rPFS by BICR” value was 11 months, the “Median rPFS by BICR” value (listed as Placebo with Enzalutamide) was 11.0 (8.3, 11.1) months and the “Median time to PSA progression” value (DDR-deficient population) was 11.1 months.

Reference: patent US20260207589A1, “Combination of Talazoparib and Enzalutamide in the Treatment of Metastatic Castration-Resistant Prostate Cancer” (Pfizer Inc., priority 2022, published 2026)
